Measured values reported in ChEMBL document CHEMBL1681785, “Structure-activity relationships of flavonoids as inhibitors of breast cancer resistance protein (BCRP)” (Bioorg Med Chem, 2011).

Sequences of proteins named here, by UniProt entry; tags and fusion partners are left off. A change or cut given only in a name is not applied to a line headed by its entry.
UniProt Q9UNQ0: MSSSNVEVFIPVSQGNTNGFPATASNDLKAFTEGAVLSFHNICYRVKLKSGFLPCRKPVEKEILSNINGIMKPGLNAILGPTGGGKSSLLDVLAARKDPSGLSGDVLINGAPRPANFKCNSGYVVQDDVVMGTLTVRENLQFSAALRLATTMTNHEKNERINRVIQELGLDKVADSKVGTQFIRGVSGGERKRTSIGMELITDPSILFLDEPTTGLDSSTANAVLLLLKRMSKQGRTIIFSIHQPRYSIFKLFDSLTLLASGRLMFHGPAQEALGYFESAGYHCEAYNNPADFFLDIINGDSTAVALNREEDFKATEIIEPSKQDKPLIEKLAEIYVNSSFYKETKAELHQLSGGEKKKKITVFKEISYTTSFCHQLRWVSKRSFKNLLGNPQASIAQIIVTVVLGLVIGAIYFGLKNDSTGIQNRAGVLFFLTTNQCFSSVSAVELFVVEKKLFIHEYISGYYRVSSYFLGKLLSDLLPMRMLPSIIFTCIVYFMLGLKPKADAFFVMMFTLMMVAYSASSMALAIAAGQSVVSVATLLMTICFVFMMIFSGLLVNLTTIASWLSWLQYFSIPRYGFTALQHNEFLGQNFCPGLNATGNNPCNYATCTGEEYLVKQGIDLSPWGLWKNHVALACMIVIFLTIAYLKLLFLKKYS

Target: Broad substrate specificity ATP-binding cassette transporter ABCG2 (Homo sapiens, UniProt Q9UNQ0)
Assay: Inhibition of BCRP expressed in MCF-7 MX cells using Hoechst 33342 staining
Format: cell-based, MCF7

IC50: 2.6 µM
Compound: O=c1cc(-c2ccccc2)oc2cc(O)cc(O)c12 [CHRYSIN]
